In PubChem BioAssay (NCI):
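The compound was tested at five concentrations on cells cultured in 96-well plates, with a 48-hour exposure period. Here, GI50 denotes the concentration required for 50% inhibition of growth. TGI: total growth inhibition.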

Assays:
Test in all cases: NCI tumour cell line growth inhibition, 48 h
K-562 leukemia = system: K-562 leukemia
SF-268 CNS = system: SF-268 CNS
HCT-116 colon = system: HCT-116 colon
CCRF-CEM leukemia = system: CCRF-CEM leukemia
SK-OV-3 ovarian = system: SK-OV-3 ovarian
OVCAR-8 ovarian = system: OVCAR-8 ovarian
SK-MEL-28 melanoma = system: SK-MEL-28 melanoma
COLO 205 colon = system: COLO 205 colon
TK-10 renal = system: TK-10 renal
HOP-62 NSCLC = system: HOP-62 NSCLC
NCI-H23 lung = system: NCI-H23 lung
OVCAR-5 ovarian = system: OVCAR-5 ovarian
SW-620 colon = system: SW-620 colon
SN12C renal = system: SN12C renal
MOLT-4 leukemia = system: MOLT-4 leukemia
LXFL 529 NSCLC = system: LXFL 529 NSCLC
RXF 393 renal = system: RXF 393 renal
DMS 114 small cell lung = system: DMS 114 small cell lung
M14 melanoma = system: M14 melanoma
A549 NSCLC = system: A549 NSCLC
MALME-3M melanoma = system: MALME-3M melanoma
HCC-2998 colon = system: HCC-2998 colon
U251 CNS = system: U251 CNS
RXF-631 renal = system: RXF-631 renal
DLD-1 colon = system: DLD-1 colon
KM20L2 colon = system: KM20L2 colon
SK-MEL-5 melanoma = system: SK-MEL-5 melanoma
CAKI-1 renal = system: CAKI-1 renal
SNB-19 CNS = system: SNB-19 CNS
786-0 renal = system: 786-0 renal
LOX IMVI melanoma = system: LOX IMVI melanoma
UACC-257 melanoma = system: UACC-257 melanoma
OVCAR-4 ovarian = system: OVCAR-4 ovarian
KM12 colon = system: KM12 colon
RPMI-8226 leukemia = system: RPMI-8226 leukemia
NCI-H460 lung = system: NCI-H460 lung
NCI-H322M lung = system: NCI-H322M lung
UACC-62 melanoma = system: UACC-62 melanoma
SK-MEL-2 melanoma = system: SK-MEL-2 melanoma
M19-MEL melanoma = system: M19-MEL melanoma
HCT-15 colon = system: HCT-15 colon
EKVX NSCLC = system: EKVX NSCLC
SF-539 CNS = system: SF-539 CNS
OVCAR-3 ovarian = system: OVCAR-3 ovarian
SF-295 CNS = system: SF-295 CNS
HT29 colon = system: HT29 colon
XF 498 CNS = system: XF 498 CNS
A498 renal = system: A498 renal
SNB-78 CNS = system: SNB-78 CNS
IGROV1 ovarian = system: IGROV1 ovarian
DMS 273 small cell lung = system: DMS 273 small cell lung
SNB-75 CNS = system: SNB-75 CNS
ACHN renal = system: ACHN renal
HL-60(TB) leukemia = system: HL-60(TB) leukemia
MCF7 breast = system: MCF7 breast
HOP-92 NSCLC = system: HOP-92 NSCLC
NCI/ADR-RES ovarian = system: NCI/ADR-RES ovarian
UO-31 renal = system: UO-31 renal
NCI-H522 lung = system: NCI-H522 lung
SN12K1 renal = system: SN12K1 renal
NCI-H226 lung = system: NCI-H226 lung
P388 leukemia = system: P388 leukemia
HOP-18 NSCLC = system: HOP-18 NSCLC
P388/ADR leukemia = system: P388/ADR leukemia

## C[C@H](N[N+](=O)[O-])C(N)=O
K-562 leukemia
  GI50: > 100 µM
  TGI: > 100 µM
SF-268 CNS
  GI50: > 100 µM
  TGI: > 100 µM
HCT-116 colon
  GI50: > 100 µM
  TGI: > 100 µM
CCRF-CEM leukemia
  GI50: > 100 µM
  TGI: > 100 µM
SK-OV-3 ovarian
  GI50: > 100 µM
  TGI: > 100 µM
OVCAR-8 ovarian
  GI50: > 100 µM
  TGI: > 100 µM
SK-MEL-28 melanoma
  GI50: > 100 µM
  TGI: > 100 µM
COLO 205 colon
  GI50: > 100 µM
  TGI: > 100 µM
TK-10 renal
  GI50: > 100 µM
  TGI: > 100 µM
HOP-62 NSCLC
  GI50: > 100 µM
  TGI: > 100 µM
NCI-H23 lung
  GI50: > 100 µM
  TGI: > 100 µM
OVCAR-5 ovarian
  GI50: > 100 µM
  TGI: > 100 µM
SW-620 colon
  GI50: > 100 µM
  TGI: > 100 µM
SN12C renal
  GI50: > 100 µM
  TGI: > 100 µM
MOLT-4 leukemia
  GI50: > 100 µM
  TGI: > 100 µM
LXFL 529 NSCLC
  GI50: > 100 µM
  TGI: > 100 µM
RXF 393 renal
  GI50: > 100 µM
  TGI: > 100 µM
DMS 114 small cell lung
  GI50: > 100 µM
  TGI: > 100 µM
M14 melanoma
  GI50: > 100 µM
  TGI: > 100 µM
A549 NSCLC
  GI50: > 100 µM
  TGI: > 100 µM
MALME-3M melanoma
  GI50: > 100 µM
  TGI: > 100 µM
HCC-2998 colon
  GI50: > 100 µM
  TGI: > 100 µM
U251 CNS
  GI50: > 100 µM
  TGI: > 100 µM
RXF-631 renal
  GI50: > 100 µM
  TGI: > 100 µM
DLD-1 colon
  GI50: > 100 µM
  TGI: > 100 µM
KM20L2 colon
  GI50: > 100 µM
  TGI: > 100 µM
SK-MEL-5 melanoma
  GI50: > 100 µM
  TGI: > 100 µM
CAKI-1 renal
  GI50: > 100 µM
  TGI: > 100 µM
SNB-19 CNS
  GI50: > 100 µM
  TGI: > 100 µM
786-0 renal
  GI50: > 100 µM
  TGI: > 100 µM
LOX IMVI melanoma
  GI50: > 100 µM
  TGI: > 100 µM
UACC-257 melanoma
  GI50: > 100 µM
  TGI: > 100 µM
OVCAR-4 ovarian
  GI50: > 100 µM
  TGI: > 100 µM
KM12 colon
  GI50: > 100 µM
  TGI: > 100 µM
RPMI-8226 leukemia
  GI50: > 100 µM
  TGI: > 100 µM
NCI-H460 lung
  GI50: > 100 µM
  TGI: > 100 µM
NCI-H322M lung
  GI50: > 100 µM
  TGI: > 100 µM
UACC-62 melanoma
  GI50: > 100 µM
  TGI: > 100 µM
SK-MEL-2 melanoma
  GI50: > 100 µM
  TGI: > 100 µM
M19-MEL melanoma
  GI50: > 100 µM
  TGI: > 100 µM
HCT-15 colon
  GI50: > 100 µM
  TGI: > 100 µM
EKVX NSCLC
  GI50: > 100 µM
  TGI: > 100 µM
SF-539 CNS
  GI50: > 100 µM
  TGI: > 100 µM
OVCAR-3 ovarian
  GI50: > 100 µM
  TGI: > 100 µM
SF-295 CNS
  GI50: > 100 µM
  TGI: > 100 µM
HT29 colon
  GI50: > 100 µM
  TGI: > 100 µM
XF 498 CNS
  GI50: > 100 µM
  TGI: > 100 µM
A498 renal
  GI50: > 100 µM
  TGI: > 100 µM
SNB-78 CNS
  GI50: > 100 µM
  TGI: > 100 µM
IGROV1 ovarian
  GI50: > 100 µM
  TGI: > 100 µM
DMS 273 small cell lung
  GI50: > 100 µM
  TGI: > 100 µM
SNB-75 CNS
  GI50: > 100 µM
  TGI: > 100 µM
ACHN renal
  GI50: > 100 µM
  TGI: > 100 µM

## CCNC(=O)O[C@@H]1CC[N+]2([O-])CC=C(COC(=O)C(O)(CC)c3ccc(Cl)cc3)C12 (some centres undefined)
K-562 leukemia
  TGI: > 100 µM
SF-268 CNS
  TGI: > 100 µM
HCT-116 colon
  TGI: > 100 µM
CCRF-CEM leukemia
  TGI: > 100 µM
SK-OV-3 ovarian
  TGI: > 100 µM
HL-60(TB) leukemia
  TGI: > 100 µM
OVCAR-8 ovarian
  TGI: > 100 µM
SK-MEL-28 melanoma
  TGI: > 100 µM
COLO 205 colon
  TGI: > 100 µM
HOP-62 NSCLC
  TGI: > 100 µM
NCI-H23 lung
  TGI: > 100 µM
MCF7 breast
  TGI: > 100 µM
HOP-92 NSCLC
  TGI: > 100 µM
NCI/ADR-RES ovarian
  TGI: > 100 µM
OVCAR-5 ovarian
  TGI: > 100 µM
SW-620 colon
  TGI: > 100 µM
SN12C renal
  TGI: > 100 µM
MOLT-4 leukemia
  TGI: > 100 µM
RXF 393 renal
  GI50: > 100 µM
  TGI: > 100 µM
DMS 114 small cell lung
  TGI: > 100 µM
A549 NSCLC
  TGI: > 100 µM
MALME-3M melanoma
  TGI: > 100 µM
HCC-2998 colon
  TGI: > 100 µM
UO-31 renal
  TGI: > 100 µM
U251 CNS
  TGI: > 100 µM
DLD-1 colon
  TGI: > 100 µM
NCI-H522 lung
  TGI: > 100 µM
SK-MEL-5 melanoma
  TGI: > 100 µM
CAKI-1 renal
  TGI: > 100 µM
SNB-19 CNS
  TGI: > 100 µM
LOX IMVI melanoma
  TGI: > 100 µM
UACC-257 melanoma
  TGI: > 100 µM
OVCAR-4 ovarian
  TGI: > 100 µM
KM12 colon
  TGI: > 100 µM
RPMI-8226 leukemia
  TGI: > 100 µM
NCI-H460 lung
  TGI: > 100 µM
SN12K1 renal
  TGI: > 100 µM
NCI-H226 lung
  TGI: > 100 µM
NCI-H322M lung
  TGI: > 100 µM
UACC-62 melanoma
  TGI: > 100 µM
SK-MEL-2 melanoma
  TGI: > 100 µM
M19-MEL melanoma
  TGI: > 100 µM
HCT-15 colon
  TGI: > 100 µM
EKVX NSCLC
  TGI: > 100 µM
SF-539 CNS
  TGI: > 100 µM
OVCAR-3 ovarian
  TGI: > 100 µM
SF-295 CNS
  TGI: > 100 µM
HT29 colon
  TGI: > 100 µM
P388 leukemia
  TGI: > 100 µM
HOP-18 NSCLC
  TGI: > 100 µM
A498 renal
  TGI: > 100 µM
SNB-78 CNS
  GI50: > 100 µM
  TGI: > 100 µM
IGROV1 ovarian
  TGI: > 100 µM
P388/ADR leukemia
  TGI: > 100 µM
DMS 273 small cell lung
  TGI: > 100 µM
SNB-75 CNS
  TGI: > 100 µM
